# Results: patent US9855265B2, “Methods for treating cancer with TrkA receptor tyrosine kinase antagonists” (VM Oncology LLC, priority 2014, dated 2018)
# Tested on: PANC-1 subcutaneous human pancreatic cancer xenografts
# Assay: PANC-1 Subcutaneous Human Pancreatic Cancer Xenograft Mouse Model
# Settings: Day 18; gemcitabine 20 mg/kg (alone or with Compound-12, see label)
smiles,measurement,value
"Nc1ccn([C@@H]2O[C@H](CO)[C@@H](O)C2(F)F)c(=O)n1 [Gemcitabine, gemcitabine]",Tumor volume (Mean ± SEM),184 ± 13 mm^3
